# Test results reported in published antibiotic growth screens (doi:10.1038/s41589-023-01349-8).
# The list shows a part of the results.
# Tested on: A. baumannii ATCC 17978
# Test: relative growth (fraction of control); higher = less inhibition
# Conditions: 50 µM
row,Compound,relative growth
1,O=C(NC[C@@H](O)CO)[C@]1(CCS(=O)(=O)c2ccccc2)N=C(c2ccc(OCCCO)cc2)O[C@@H]1c1ccccc1,0.988
2,Cc1nc(-c2ccc(OCC(C)C)c(C#N)c2)sc1C(=O)O,1.2
3,CC(C(=O)O)c1ccc2c(c1)CC(=O)c1ccccc1S2 (stereo not given),1.05
4,COCC#Cc1cnc2c(c1)C(=O)N([C@H](C)CO)C[C@H](C)[C@H](CN(C)S(=O)(=O)c1ccccc1)O2,1.07
5,COc1ccc(S(=O)(=O)N[C@@H]2CC[C@H](CC(=O)N3CCN(c4ccccc4)CC3)O[C@@H]2CO)cc1,0.97
6,CN1CCN(C(=O)C[C@@H]2C=C[C@H](NS(=O)(=O)c3cccc(F)c3)[C@H](CO)O2)CC1,0.966
7,COc1ccc(-n2c(C)cc(CN)c2C)cc1,0.878
8,CC1(C)S[C@@H]2C(N3C(=O)[C@@H](c4ccccc4)NC3(C)C)C(=O)N2[C@H]1C(=O)[O-].[K+] (stereo not given in full),0.153
9,CCNc1cc(=N)n(CC)c2n[nH]c(N)c12,1.05
10,C[C@@H]1CN([C@@H](C)CO)C(=O)c2ccccc2-c2ccccc2CO[C@@H]1CN(C)C(=O)Nc1ccccc1C(F)(F)F,1.03
11,CC(=O)NCCCC[C@@H]1NC(=O)[C@@H]2C[C@H](C(=O)NCc3ccc(F)cc3)[C@H](c3ccc(O)cc3)N2C1=O,1.01
12,C=C(C)C1CC=C(CO)CC1 (stereo not given),1.08
13,Cc1n[nH]c(NCc2ccco2)nc1=O,1
14,O=C(Cc1ccncc1)NCC[C@H]1CC[C@H](NC(=O)C2CCOCC2)[C@H](CO)O1,0.931
15,COC(=O)c1cnn2c(=O)cc(C)[nH]c12,1.06
16,CC(=O)N[C@@H]1[C@@H](OCCOc2ccc(Cl)cc2C)O[C@H](CO)[C@H](O)[C@@H]1O,1.2
17,NC(=O)[C@@]1(CCS(=O)(=O)c2ccccc2)N=C(c2ccc(OCCCO)cc2)O[C@H]1c1ccccc1,0.941
18,N#C/C(=N\O)C(=O)c1ccco1,0.966
19,N#C[C@H](c1ccccn1)N1CCOCC1,0.808
20,CO/N=C1\C[C@]2(C[C@@H]3C[C@@H](C/C=C(\C)C[C@@H](C)/C=C/C=C4\CO[C@@H]5[C@H](O)C(C)=C[C@@H](C(=O)O3)[C@]45O)O2)O[C@H](/C(C)=C/C(C)C)[C@H]1C,1.01
21,O=C(C[C@@H]1C=C[C@H](NC(=O)CN2CCOCC2)[C@@H](CO)O1)NCc1cccc(F)c1,0.989
22,C[C@@H]1CN([C@H](C)CO)S(=O)(=O)c2ccc(C#C[C@@H](C)O)cc2O[C@@H]1CN(C)C,1.05
23,OCC1c2ccccc2-c2ccccc21,1.04
24,Cn1c(=O)c2c(ncn2C[C@@H](O)CO)n(C)c1=O,1.03
25,CN(C)C(=O)CSc1nnc(N)s1,1.02
